Target: T1, NSD2 (Homo sapiens, UniProt O96028)
T1 sequence (O96028 1-1365): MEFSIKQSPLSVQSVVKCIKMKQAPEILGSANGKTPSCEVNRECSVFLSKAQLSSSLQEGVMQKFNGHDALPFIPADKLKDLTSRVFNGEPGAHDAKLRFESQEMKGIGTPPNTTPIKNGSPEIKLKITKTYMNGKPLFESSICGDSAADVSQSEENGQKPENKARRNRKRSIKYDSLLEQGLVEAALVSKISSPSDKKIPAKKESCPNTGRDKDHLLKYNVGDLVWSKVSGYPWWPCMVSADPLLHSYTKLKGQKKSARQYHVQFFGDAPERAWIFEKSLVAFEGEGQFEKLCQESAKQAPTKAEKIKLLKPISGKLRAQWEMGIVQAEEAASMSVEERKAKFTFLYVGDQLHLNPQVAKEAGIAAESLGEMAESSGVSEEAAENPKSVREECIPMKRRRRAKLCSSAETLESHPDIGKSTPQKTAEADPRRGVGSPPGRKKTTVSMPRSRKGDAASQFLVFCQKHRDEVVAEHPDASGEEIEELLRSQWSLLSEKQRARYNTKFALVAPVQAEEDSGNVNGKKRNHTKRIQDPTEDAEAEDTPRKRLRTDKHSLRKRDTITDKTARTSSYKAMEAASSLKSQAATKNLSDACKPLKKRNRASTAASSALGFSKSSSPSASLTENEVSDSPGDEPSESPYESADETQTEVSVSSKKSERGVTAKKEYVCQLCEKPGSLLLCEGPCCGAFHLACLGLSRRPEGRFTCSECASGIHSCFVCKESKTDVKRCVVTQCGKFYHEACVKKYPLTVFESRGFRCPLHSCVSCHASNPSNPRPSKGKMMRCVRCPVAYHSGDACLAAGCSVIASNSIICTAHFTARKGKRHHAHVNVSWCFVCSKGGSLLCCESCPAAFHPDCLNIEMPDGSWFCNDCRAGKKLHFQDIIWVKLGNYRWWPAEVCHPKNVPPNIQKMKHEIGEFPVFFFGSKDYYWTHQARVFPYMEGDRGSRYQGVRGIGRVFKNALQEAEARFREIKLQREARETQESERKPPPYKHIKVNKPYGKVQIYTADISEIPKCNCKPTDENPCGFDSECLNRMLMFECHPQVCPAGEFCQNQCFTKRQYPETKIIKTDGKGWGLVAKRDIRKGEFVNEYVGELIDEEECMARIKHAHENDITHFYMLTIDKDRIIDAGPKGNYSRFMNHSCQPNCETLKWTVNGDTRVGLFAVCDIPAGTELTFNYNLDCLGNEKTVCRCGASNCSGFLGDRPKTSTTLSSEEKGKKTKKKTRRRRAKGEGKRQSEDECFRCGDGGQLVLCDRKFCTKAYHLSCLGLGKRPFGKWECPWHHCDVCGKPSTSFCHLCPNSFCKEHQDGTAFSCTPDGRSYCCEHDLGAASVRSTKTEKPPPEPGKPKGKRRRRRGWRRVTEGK
Experiment: Methyltransferase inhibition, 10-dose IC50 mode
Format: biochemical
Description: Verticillin A was tested as an inhibitor against 18 known methyltransferases. […] All reactions were carried out with a S-adenosyl methionine (SAM) concentration of 1 μM.
The methyltransferases tested included the human DNA (cytosine-5) methyltransferases DNMT3a and BNMT3b; the non-SET domain containing H3K79 methyltransferase DOT 1; the H3K27 methyltransferase EZH2; the Mixed-Lineage Leukemia H3K4Me methyltransferases MLL1, MLL2, MLL3, and MLL4; the probable histone-lysine N-methyltransferase NSD2 (also known as Wolf-Hirschhorn syndrome candidate 1 protein, WHSC1); the protein arginine N-methyltransferases PRMT1, PRMT3, PRMT4, PRMT5, and PRMT6; the H3K4 specific methyltransferase SET7; the […] specific methyltransferase SET8 (also known as PR-SETT); the SET domain and mariner transposase fusion gene-containing protein SETMAR; the N-lysine methyltransferase SMYD2; the histone-lysine N-methyltransferase EZH1; the methyltransferase G9a that can methylate K9 and K27 of H1 and H3; the G9a-like methyltransferase GLP; and the H3K9 selective methyltransferases SUV39H1 and SUV39H2.

## Nc1ncnc2c1ncn2[C@@H]1O[C@H](CSCC[C@H](N)C(=O)O)[C@@H](O)[C@H]1O [SAH, S-(5′-Adenosyl)-L-homocysteine]
  IC50: 5.05 µM
